The results in this text go back to paper PMC7876115, “Flagellin-based electrochemical sensing layer for arsenic detection in water” (2021).

Assay in all cases: isothermal titration calorimetry, one-binding-site model
For one experiment, the system named is FliC-ArsR10. The following applies: 100 mM HEPES, 150 mM NaCl, 1 mM TCEP, pH 7.0, 25 °C, 10% DMSO; N = 0.5; protein ~50 µM in legend, ~5 µM in methods.
Another experiment relates to FliC-ArsR6. Particulars: 100 mM HEPES, 150 mM NaCl, 1 mM TCEP, pH 7.0, 25 °C, 10% DMSO, N = 0.5, protein ~50 µM in legend, ~5 µM in methods.
The subject of the next experiment is FliC-ArsR9. Particulars: 100 mM HEPES, 150 mM NaCl, 1 mM TCEP, pH 7.0, 25 °C, 10% DMSO; N = 0.5; protein ~50 µM in legend, ~5 µM in methods; N = 0.2.

For the molecule `O=[As]c1ccccc1` (stereo not drawn), the Kd in the experiment on FliC-ArsR10 is listed as 3.7·10^−7 M; with FliC-ArsR6, 6.3·10^−7 M; in the experiment on FliC-ArsR9, 6.9·10^−7 M.
